# According to patent publication US20230340011A1 (Asteroid Therapeutics, priority 2022, published 2023):
# Protein sequences, listed by entry. Tags and fused reporters are not part of them.
# UniProt P55055, whole entry: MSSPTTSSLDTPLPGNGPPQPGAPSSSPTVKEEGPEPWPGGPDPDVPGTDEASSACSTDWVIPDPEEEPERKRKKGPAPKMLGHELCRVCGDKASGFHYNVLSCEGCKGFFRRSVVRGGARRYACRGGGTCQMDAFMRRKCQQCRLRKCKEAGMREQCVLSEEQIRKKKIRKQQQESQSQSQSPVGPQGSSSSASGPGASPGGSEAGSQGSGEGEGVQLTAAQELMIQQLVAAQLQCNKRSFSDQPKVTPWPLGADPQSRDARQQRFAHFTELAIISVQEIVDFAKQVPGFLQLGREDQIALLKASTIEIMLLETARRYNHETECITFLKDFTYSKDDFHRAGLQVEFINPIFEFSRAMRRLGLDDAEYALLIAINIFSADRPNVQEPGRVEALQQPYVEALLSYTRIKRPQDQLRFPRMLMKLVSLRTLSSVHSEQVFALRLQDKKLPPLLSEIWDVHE
# Target: LXRβ (Homo sapiens (Human), UniProt P55055)
# Assay: In vitro assay LXRβ: PathHunter NHR CHO cells, LXRβ / Steroid Receptor Co-activator Peptide enzyme fragment complementation
# Type: cell-based
# Details: read-out: LXRβ PPI, full-length human LXRβ and SRCP, chemiluminescent signal
compound,measurement,value
C[C@H](CCc1ccncn1)[C@H]1CC[C@H]2[C@@H]3CC=C4C[C@@H](O)CC[C@]4(C)[C@H]3CC[C@]12C,EC50,1 to 10 µM
